# Experimental data reported in patent US7407934B2, “Methods for regulating postprandial blood glucose” (Amylin Pharmaceuticals, Inc., priority 1993, dated 2008).
# Columns and labels:
# [1] = test system: insulin-stimulated glycogen synthesis in soleus muscle; assay: Soleus muscle assay (inhibition of insulin-stimulated glycogen synthesis); type: cell-based, rat
# Experimental: Concentrations of peptide dissolved in carrier-free buffers are determined by quantitative amino acid analysis, as described therein. The ability of compounds to act as agonists in this assay is determined by measuring EC50 values. […] Similar results were obtained with other agonist compounds listed above.
# [2] = Amylin activity in vivo in treated test animals (hyperlactemia, hyperglycemia)
# amylin receptors = molecular target: T1, amylin receptors (Rattus norvegicus, UniProt P32214); assay: Receptor binding assay (competition with 125I Bolton-Hunter rat amylin)
# T1 construct: This basal forebrain tissue, containing the nucleus accumbens and surrounding regions, was weighed and homogenized; from tissue; host or cells: rat basal forebrain (nucleus accumbens and surrounding regions) membranes
# T1 sequence (P32214 25-516): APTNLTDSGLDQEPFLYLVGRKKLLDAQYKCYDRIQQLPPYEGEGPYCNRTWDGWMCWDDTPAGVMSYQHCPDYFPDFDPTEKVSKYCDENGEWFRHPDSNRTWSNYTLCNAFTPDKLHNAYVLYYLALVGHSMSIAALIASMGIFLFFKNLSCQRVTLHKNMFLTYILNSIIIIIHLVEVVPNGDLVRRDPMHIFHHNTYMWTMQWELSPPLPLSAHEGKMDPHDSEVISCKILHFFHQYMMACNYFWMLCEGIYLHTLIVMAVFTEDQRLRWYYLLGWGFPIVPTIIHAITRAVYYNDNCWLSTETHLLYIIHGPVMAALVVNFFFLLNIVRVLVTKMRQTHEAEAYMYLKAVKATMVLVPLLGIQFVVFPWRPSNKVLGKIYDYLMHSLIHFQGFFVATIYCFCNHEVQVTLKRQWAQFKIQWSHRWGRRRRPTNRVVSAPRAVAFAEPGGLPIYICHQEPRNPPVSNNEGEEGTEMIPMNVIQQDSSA
# From the text: A preferred source of the membrane preparations used in the assay is the basal foregrain which comprises membranes from the nucleus accumbens and surrounding regions.
# Unlabeled peptides were obtained from BACHEM Inc. (Torrance, Calif.) and Peninsula Laboratories (Belmont, Calif.).
# Male Sprague-Dawley rats (200-250) grams were sacrificed by decapitation. Brains were removed to cold phosphate-buffered saline (PBS). From the ventral surface, cuts were made rostral to the hypothalamus, bounded laterally by the olfactory tracts and extending at a 45° angle medially from these tracts. This basal forebrain tissue, containing the nucleus accumbens and surrounding regions, was weighed and homogenized in ice-cold 20 mM HEPES buffer (20 mM HEPS acid, pH adjusted to 7.4 with NaOH at 23° C.). […] The final membrane pellet was resuspended in 20 nM HEPES buffer containing 0.2 mM phenylmethylsulfonyl fluoride (PMSF).
# Solutions were incubated for 60 minutes at 23° C. […] Filters were washed immediately before filtration with 5 ml cold PBS, and immediately after filtration with 15 ml cold PBS.
Structure (SMILES),EC50 [1],Amylin activity in vivo [2],Competition with amylin / receptor binding activity (in words) (amylin receptors)
"CC[C@H](C)[C@H](NC(=O)[C@H](C)NC(=O)CNC(=O)[C@H](Cc1ccccc1)NC(=O)[C@H](CC(N)=O)NC(=O)[C@H](CC(N)=O)NC(=O)[C@H](CO)NC(=O)[C@H](CO)NC(=O)[C@H](Cc1c[nH]cn1)NC(=O)[C@@H](NC(=O)[C@H](CC(C)C)NC(=O)[C@H](Cc1ccccc1)NC(=O)[C@H](CC(N)=O)NC(=O)[C@H](C)NC(=O)[C@H](CC(C)C)NC(=O)[C@H](CCCNC(=N)N)NC(=O)[C@H](CCC(N)=O)NC(=O)[C@@H](NC(=O)[C@H](C)NC(=O)[C@@H]1CSSC[C@H](N)C(=O)N[C@@H](CC(N)=O)C(=O)N[C@@H]([C@@H](C)O)C(=O)N[C@@H](C)C(=O)N[C@@H]([C@@H](C)O)C(=O)N1)[C@@H](C)O)C(C)C)C(=O)N[C@@H](CC(C)C)C(=O)N[C@@H](CO)C(=O)N[C@@H](CO)C(=O)N[C@H](C(=O)N[C@@H](CC(N)=O)C(=O)N[C@H](C(=O)NCC(=O)N[C@@H](CO)C(=O)N[C@@H](CC(N)=O)C(=O)N[C@H](C(=O)N[C@@H](Cc1ccc(O)cc1)C(N)=O)[C@@H](C)O)C(C)C)[C@@H](C)O [^2,37h-Amylin, des-^1Lys-h-Amylin]",1.63 nM,marked hyperlactemia followed by hyperglycemia,–
"CC[C@H](C)[C@H](NC(=O)[C@@H]1CCCN1C(=O)CNC(=O)[C@H](Cc1ccccc1)NC(=O)[C@H](CC(N)=O)NC(=O)[C@H](CC(N)=O)NC(=O)[C@H](CO)NC(=O)[C@H](CO)NC(=O)[C@H](CCCNC(=N)N)NC(=O)[C@@H](NC(=O)[C@H](CC(C)C)NC(=O)[C@H](Cc1ccccc1)NC(=O)[C@H](CC(N)=O)NC(=O)[C@H](C)NC(=O)[C@H](CC(C)C)NC(=O)[C@H](CCCNC(=N)N)NC(=O)[C@H](CCC(N)=O)NC(=O)[C@@H](NC(=O)[C@H](C)NC(=O)[C@@H]1CSSC[C@H](NC(=O)[C@@H](N)CCCCN)C(=O)N[C@@H](CC(N)=O)C(=O)N[C@@H]([C@@H](C)O)C(=O)N[C@@H](C)C(=O)N[C@@H]([C@@H](C)O)C(=O)N1)[C@@H](C)O)C(C)C)C(=O)N[C@@H](CC(C)C)C(=O)N1CCC[C@H]1C(=O)N[C@@H](CO)C(=O)N[C@H](C(=O)N[C@@H](CC(N)=O)C(=O)N[C@H](C(=O)NCC(=O)N[C@@H](CO)C(=O)N[C@@H](CC(N)=O)C(=O)N[C@H](C(=O)N[C@@H](Cc1ccc(O)cc1)C(N)=O)[C@@H](C)O)C(C)C)[C@@H](C)O [^18Arg^25,28Pro-h-Amylin]",2.83 nM,marked hyperlactemia followed by hyperglycemia,compete with amylin
"CC[C@H](C)[C@H](NC(=O)[C@@H]1CCCN1C(=O)CNC(=O)[C@H](Cc1ccccc1)NC(=O)[C@H](CC(N)=O)NC(=O)[C@H](CC(N)=O)NC(=O)[C@H](CO)NC(=O)[C@H](CO)NC(=O)[C@H](Cc1c[nH]cn1)NC(=O)[C@@H](NC(=O)[C@H](CC(C)C)NC(=O)[C@H](Cc1ccccc1)NC(=O)[C@H](CC(N)=O)NC(=O)[C@H](C)NC(=O)[C@H](CC(C)C)NC(=O)[C@H](CCCNC(=N)N)NC(=O)[C@H](CCC(N)=O)NC(=O)[C@@H](NC(=O)[C@H](C)NC(=O)[C@@H]1CSSC[C@H](NC(=O)[C@@H](N)CCCCN)C(=O)N[C@@H](CC(N)=O)C(=O)N[C@@H]([C@@H](C)O)C(=O)N[C@@H](C)C(=O)N[C@@H]([C@@H](C)O)C(=O)N1)[C@@H](C)O)C(C)C)C(=O)N[C@@H](CC(C)C)C(=O)N1CCC[C@H]1C(=O)N1CCC[C@H]1C(=O)N[C@H](C(=O)N[C@@H](CC(N)=O)C(=O)N[C@H](C(=O)NCC(=O)N[C@@H](CO)C(=O)N[C@@H](CC(N)=O)C(=O)N[C@H](C(=O)N[C@@H](Cc1ccc(O)cc1)C(N)=O)[C@@H](C)O)C(C)C)[C@@H](C)O [^25,28,29Pro-h-Amylin]",3.71 nM,marked hyperlactemia followed by hyperglycemia,compete with amylin
"CC[C@H](C)[C@H](NC(=O)[C@H](C)NC(=O)CNC(=O)[C@H](Cc1ccccc1)NC(=O)[C@H](CC(N)=O)NC(=O)[C@H](CC(N)=O)NC(=O)[C@H](CO)NC(=O)[C@H](CO)NC(=O)[C@H](Cc1c[nH]cn1)NC(=O)[C@@H](NC(=O)[C@H](CC(C)C)NC(=O)[C@H](Cc1ccccc1)NC(=O)[C@H](CC(N)=O)NC(=O)[C@H](C)NC(=O)[C@H](CC(C)C)NC(=O)[C@H](CCCNC(=N)N)NC(=O)[C@H](CCC(N)=O)NC(=O)[C@@H](NC(=O)[C@H](C)NC(=O)[C@@H]1CSSC[C@H](NC(=O)[C@@H](N)CCCCN)C(=O)N[C@@H](CC(N)=O)C(=O)N[C@@H]([C@@H](C)O)C(=O)N[C@@H](C)C(=O)N[C@@H]([C@@H](C)O)C(=O)N1)[C@@H](C)O)C(C)C)C(=O)N[C@@H](CC(C)C)C(=O)N1CCC[C@H]1C(=O)N[C@@H](CO)C(=O)N[C@H](C(=O)N[C@@H](CC(N)=O)C(=O)N[C@H](C(=O)NCC(=O)N[C@@H](CO)C(=O)N[C@@H](CC(N)=O)C(=O)N[C@H](C(=O)N[C@@H](Cc1ccc(O)cc1)C(N)=O)[C@@H](C)O)C(C)C)[C@@H](C)O [^28Pro-h-Amylin, ^28Pro-human-Amylin]",2.64 nM,marked hyperlactemia followed by hyperglycemia,–
"CC[C@H](C)[C@H](NC(=O)[C@@H]1CCCN1C(=O)CNC(=O)[C@H](Cc1ccccc1)NC(=O)[C@H](CC(N)=O)NC(=O)[C@H](CC(N)=O)NC(=O)[C@H](CO)NC(=O)[C@H](CO)NC(=O)[C@H](CCCNC(=N)N)NC(=O)[C@@H](NC(=O)[C@H](CC(C)C)NC(=O)[C@H](Cc1ccccc1)NC(=O)[C@H](CC(N)=O)NC(=O)[C@H](C)NC(=O)[C@H](CC(C)C)NC(=O)[C@H](CCCNC(=N)N)NC(=O)[C@H](CCC(N)=O)NC(=O)[C@@H](NC(=O)[C@H](C)NC(=O)[C@@H]1CSSC[C@H](N)C(=O)N[C@@H](CC(N)=O)C(=O)N[C@@H]([C@@H](C)O)C(=O)N[C@@H](C)C(=O)N[C@@H]([C@@H](C)O)C(=O)N1)[C@@H](C)O)C(C)C)C(=O)N[C@@H](CC(C)C)C(=O)N1CCC[C@H]1C(=O)N1CCC[C@H]1C(=O)N[C@H](C(=O)N[C@@H](CC(N)=O)C(=O)N[C@H](C(=O)NCC(=O)N[C@@H](CO)C(=O)N[C@@H](CC(N)=O)C(=O)N[C@H](C(=O)N[C@@H](Cc1ccc(O)cc1)C(N)=O)[C@@H](C)O)C(C)C)[C@@H](C)O [des-^1Lys^18Arg^25,28,29Pro-h-Amylin]",1.86 nM,–,compete with amylin
"CC[C@H](C)[C@H](NC(=O)[C@@H]1CCCN1C(=O)CNC(=O)[C@H](Cc1ccccc1)NC(=O)[C@H](CC(N)=O)NC(=O)[C@H](CC(N)=O)NC(=O)[C@H](CO)NC(=O)[C@H](CO)NC(=O)[C@H](CCCNC(=N)N)NC(=O)[C@@H](NC(=O)[C@H](CC(C)C)NC(=O)[C@H](Cc1ccccc1)NC(=O)[C@H](CC(N)=O)NC(=O)[C@H](C)NC(=O)[C@H](CC(C)C)NC(=O)[C@H](CCCNC(=N)N)NC(=O)[C@H](CCC(N)=O)NC(=O)[C@@H](NC(=O)[C@H](C)NC(=O)[C@@H]1CSSC[C@H](N)C(=O)N[C@@H](CC(N)=O)C(=O)N[C@@H]([C@@H](C)O)C(=O)N[C@@H](C)C(=O)N[C@@H]([C@@H](C)O)C(=O)N1)[C@@H](C)O)C(C)C)C(=O)N[C@@H](CC(C)C)C(=O)N1CCC[C@H]1C(=O)N[C@@H](CO)C(=O)N[C@H](C(=O)N[C@@H](CC(N)=O)C(=O)N[C@H](C(=O)NCC(=O)N[C@@H](CO)C(=O)N[C@@H](CC(N)=O)C(=O)N[C@H](C(=O)N[C@@H](Cc1ccc(O)cc1)C(N)=O)[C@@H](C)O)C(C)C)[C@@H](C)O [des-^1Lys^18Arg^25,28Pro-h-Amylin]",3.77 nM,marked hyperlactemia followed by hyperglycemia,compete with amylin
"CC[C@H](C)[C@H](NC(=O)[C@@H]1CCCN1C(=O)CNC(=O)[C@H](Cc1ccccc1)NC(=O)[C@H](CC(N)=O)NC(=O)[C@H](CC(N)=O)NC(=O)[C@H](CO)NC(=O)[C@H](CO)NC(=O)[C@H](Cc1c[nH]cn1)NC(=O)[C@@H](NC(=O)[C@H](CC(C)C)NC(=O)[C@H](Cc1ccccc1)NC(=O)[C@H](CC(N)=O)NC(=O)[C@H](C)NC(=O)[C@H](CC(C)C)NC(=O)[C@H](CCCNC(=N)N)NC(=O)[C@H](CCC(N)=O)NC(=O)[C@@H](NC(=O)[C@H](C)NC(=O)[C@@H]1CSSC[C@H](N)C(=O)N[C@@H](CC(N)=O)C(=O)N[C@@H]([C@@H](C)O)C(=O)N[C@@H](C)C(=O)N[C@@H]([C@@H](C)O)C(=O)N1)[C@@H](C)O)C(C)C)C(=O)N[C@@H](CC(C)C)C(=O)N1CCC[C@H]1C(=O)N1CCC[C@H]1C(=O)N[C@H](C(=O)N[C@@H](CC(N)=O)C(=O)N[C@H](C(=O)NCC(=O)N[C@@H](CO)C(=O)N[C@@H](CC(N)=O)C(=O)N[C@H](C(=O)N[C@@H](Cc1ccc(O)cc1)C(N)=O)[C@@H](C)O)C(C)C)[C@@H](C)O [des-^1Lys^25,28,29Pro-h-Amylin]",4.15 nM,–,compete with amylin
